Data on four molecules can be found in patent publication US10072023B2, “Diarylethene compounds and uses thereof” (SWITCH MATERIALS, INC., priority 2011, dated 2018).

The data set in a line: Absorbance at photostationary state (PSS) under simulated sunlight or 365 nm light. The note with it: for λ max: wavelength of maximum absorbance in the visible range, ring-closed isoform. It counts as physicochemical. More on the design: λ max: unit not given here. The source says: In some embodiments, compounds with an increased absorbance at a photostationary state (PSS) or a suitable, or increased contrast ratio, or an increased solubility may be an improvement. A compound with a greater absorbance in the visible range may be used in lesser quantities in a formulation or material to achieve a desired contrast ratio, whereas a compound with a lower absorbance at a PSS may need a higher concentration to achieve a desired contrast ratio. Absorbance at a PSS for selected compounds was measured at 2.0×10^−5 M in triglyme in the absence (full) or presence (+UV) of a UV blocking film with a UV cutoff wavelength of 370 nm (10% transmission at 370 nm), using simulated sunlight (QSUN solar simulator) as a light source, or a 365 nm light source; these PSS are reported in Tables 1.5. […] “Switch” refers to the ability (yes or no) of the compound to be reversibly converted under photochromic and electrochromic conditions between a ring-open isomer and ring-closed isomer.
A sensitivity index (SI) is a ratio of the PSS under 365 nm light to the PSS under full spectrum light (without UV blocking film). SI is an indicator of the sensitivity of the compound to the composition of the incident light (a change in the ratio of UV and visible components)—photochemical ring-opening is induced by a portion of the visible light spectrum.
Photostationary State (PSS) UV/Vis spectra are obtained using an OceanOptics™ Spectrophotometer until absorption in the visible region of the spectrum stabilizes. A 2×10^−5M solution of compound in solvent is prepared, and photofaded using visible light until absorption in the visible region of the spectrum stabilizes. The sample is then irradiated with simulated sunlight (QSUN SS-150 Solar Simulator with xenon arc lamp) until the absorption spectrum stabilizes. To obtain PSS in the presence of a UV blocking film, a second sample is prepared and irradiated as described, with a UV blocking film inserted in the light path when irradiating.

The structures appear in SMILES notation.

Consider `CC(C)(C)c1ccc(-c2cc(C3=C(c4cc(-c5ccc(C(C)(C)C)s5)sc4-c4ccc(OCCCCC#N)cc4)C(F)(F)C(F)(F)C3(F)F)c(-c3ccc(OCCCCC#N)cc3)s2)s1` [S139, 5,5′-(((4,4″-(perfluorocyclopent-1-ene-1,2-diyl)bis(5′-(tert-butyl)-[2″,2″′-bithiophene]-5″,4-diyl))bis(4,1phenylene))bis(oxy))dipentanenitrile], for which the sensitivity index (ratio of PSS under 365 nm light to PSS under full spectrum light (without UV blocking film)) is 1.25. Also, under “2.0×10^−5 M in triglyme”, the λ max is on record as 644.

In turn, `CC(C)(C)c1ccc(-c2cc(C3=C(c4cc(-c5ccc(C(C)(C)C)s5)sc4-c4ccc(OCCCCC(=O)O)cc4)C(F)(F)C(F)(F)C3(F)F)c(-c3ccc(OCCCCC(=O)O)cc3)s2)s1` [S141, 5,5′-(4,4′-(4,4′-(perfluorocyclopent-1-ene-1,2-diyl)bis(5′-tert-butyl-2,2′-bithiophene-5,4-diyl))bis(4,1-phenylene)bis(oxy))dipentanoic acid] registered a λ max (2.0×10^−5 M in triglyme) of 643.

Take `CC(C)(C)c1ccc(-c2cc(C3=C(c4cc(-c5ccc(C(C)(C)C)s5)sc4-c4ccc(C(=O)O)s4)C(F)(F)C(F)(F)C3(F)F)c(-c3ccc(C(=O)O)s3)s2)s1` [S119]: the λ max (2.0×10^−5 M in triglyme) is 643.

Take `CC(C)(C)c1ccc(-c2cc(C3=C(c4cc(-c5ccc(C(C)(C)C)s5)sc4-c4cccs4)C(F)(F)C(F)(F)C3(F)F)c(-c3cccs3)s2)s1` [S170, 4,4′-(perfluorocyclopent-1-ene-1,2-diyl)bis(5′-tert-butyl-5-(thiopheyl)-2,2′-bithiophene)]: where the note is “365 nm light source, 2.0×10^−5 M in triglyme”, the “Absorbance at PSS, 365 nm” value is 0.401.
